Laboratory results: patent US9950027

By UniProt entry, the sequences of proteins in these tests, tags left out. Residues count along the entry.
UniProt P43220, 24-463: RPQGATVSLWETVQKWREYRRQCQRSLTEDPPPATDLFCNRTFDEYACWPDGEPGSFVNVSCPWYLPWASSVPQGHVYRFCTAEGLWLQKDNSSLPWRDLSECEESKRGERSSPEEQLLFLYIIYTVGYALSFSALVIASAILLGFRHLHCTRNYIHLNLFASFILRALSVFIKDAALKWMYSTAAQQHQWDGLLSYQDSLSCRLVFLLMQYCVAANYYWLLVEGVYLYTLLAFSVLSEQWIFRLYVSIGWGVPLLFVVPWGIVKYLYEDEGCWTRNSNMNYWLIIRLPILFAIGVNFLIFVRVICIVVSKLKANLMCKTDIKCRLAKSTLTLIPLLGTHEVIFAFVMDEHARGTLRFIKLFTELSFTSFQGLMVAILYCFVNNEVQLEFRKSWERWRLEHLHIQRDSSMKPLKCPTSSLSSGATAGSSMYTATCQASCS

Target: human GLP-1 receptor (human) (UniProt P43220)
Test: cell-based or functional assay

## Analogue 1 (Example 4, BAP-modified GLP-1 analogue): Ac-His-Ala-Glu-Gly-Thr-Phe-Thr-Ser-Asp-Val-Ser-Ser-Tyr-Leu-Glu-Gly-Gln-Ala-Ala-Lys-Glu-Phe-Ile-Ala-Trp-Leu-Val-Lys-Gly-Arg-Gly-(Lys-Lys-Ac)Lys-NH2 (peptide)
  EC50 (nM), cAMP production (HTRF): 0.016 nM
